# Assay: Hum MS stability (human microsomal stability half-life)
# Conditions: not given
row,Compound,Hum MS stability t½ [h]
1,"Cc1cc2nc(-c3ccc4c(c3)c(C3CN(C)C3)nn4C)sc2c(-c2ccc(Cl)cc2)c1[C@H](OC(C)(C)C)C(=O)O [Compound 57, (S)-2-(tert-butoxy)-2-(7-(4-chlorophenyl)-5-methyl-2-(1-methyl-3-(1-methylazetidin-3-yl)-1H-indazol-5-yl)benzo[d]thiazol-6-yl)acetic acid]",6.58
2,"Cc1cc2nc(-c3ccc4c(c3)c(N3CC(N(C)C)C3)nn4C)sc2c(-c2ccc(Cl)cc2)c1[C@H](OC(C)(C)C)C(=O)O [Compound 90, (S)-2-(tert-butoxy)-2-(7-(4-chlorophenyl)-2-(3-(3-(dimethylamino)azetidin-1-yl)-1-methyl-1H-indazol-5-yl)-5-methylbenzo[d]thiazol-6-yl)acetic Acid]",6.58
3,"COCC(C)N1CC(c2nn(C)c3ccc(-c4nc5cc(C)c([C@H](OC(C)(C)C)C(=O)O)c(-c6ccc(Cl)cc6)c5s4)cc23)C1 (stereo partly drawn) [Compound 124, (2S)-2-(tert-butoxy)-2-(7-(4-chlorophenyl)-2-(3-(1-(1-methoxypropan-2-yl)azetidin-3-yl)-1-methyl-1H-indazol-5-yl)-5-methylbenzo[d]thiazol-6-yl)acetic acid]",6.58
4,"COCCN1CC(c2nn(C)c3ccc(-c4nc5cc(C)c([C@H](OC(C)(C)C)C(=O)O)c(-c6ccc(Cl)cc6)c5s4)cc23)C1 [Compound 56, (S)-2-(tert-butoxy)-2-(7-(4-chlorophenyl)-2-(3-(1-(2-methoxyethyl)azetidin-3-yl)-1-methyl-1H-indazol-5-yl)-5-methylbenzo[d]thiazol-6-yl)acetic acid]",6.58
5,"CC(=O)N1CC(N2CCC(c3nn(C)c4ccc(-c5nc6cc(C)c([C@H](OC(C)(C)C)C(=O)O)c(-c7ccc(Cl)cc7)c6s5)cc34)CC2)C1 [Compound 30, (S)-2-(2-(3-(1-(1-acetylazetidin-3-yl)piperidin-4-yl)-1-methyl-1H-indazol-5-yl)-7-(4-chlorophenyl)-5-methylbenzo[d]thiazol-6-yl)-2-(tert-butoxy)acetic acid]",6.58
6,"Cc1cc2nc(-c3ccc4c(c3)c(N3CC(N5CCOCC5)C3)nn4C)sc2c(-c2ccc(Cl)cc2)c1[C@H](OC(C)(C)C)C(=O)O [Compound 88, (S)-2-(tert-butoxy)-2-(7-(4-chlorophenyl)-5-methyl-2-(1-methyl-3-(3-morpholinoazetidin-1-yl)-1H-indazol-5-yl)benzo[d]thiazol-6-yl)acetic acid]",6.58
7,"Cc1cc2nc(-c3ccc4c(c3)c(C3CN(C(C)C)C3)nn4C)sc2c(-c2ccc(Cl)cc2)c1[C@H](OC(C)(C)C)C(=O)O [Compound 54, (S)-2-(tert-butoxy)-2-(7-(4-chlorophenyl)-2-(3-(1-isopropylazetidin-3-yl)-1-methyl-1H-indazol-5-yl)-5-methylbenzo[d]thiazol-6-yl)acetic acid]",6.58
8,"Cc1cc2nc(-c3cnc4c(c3)c(C3CCN(C)CC3)cn4C)sc2c(-c2ccc(Cl)cc2)c1[C@H](OC(C)(C)C)C(=O)O [Compound 106, (S)-2-(tert-butoxy)-2-(7-(4-chlorophenyl)-5-methyl-2-(1-methyl-3-(1-methylpiperidin-4-yl)-1H-pyrrolo[2,3-b]pyridin-5-yl)benzo[d]thiazol-6-yl)acetic acid]",6.58
9,"CCN1CCN(c2nn(C)c3ccc(-c4nc5cc(C)c([C@H](OC(C)(C)C)C(=O)O)c(-c6ccc(Cl)cc6)c5s4)cc23)C1=O [Compound 82, (S)-2-(tert-butoxy)-2-(7-(4-chlorophenyl)-2-(3-(3-ethyl-2-oxoimidazolidin-1-yl)-1-methyl-1H-indazol-5-yl)-5-methylbenzo[d]thiazol-6-yl)acetic acid]",6.58
10,"Cc1cc2nc(-c3ccc4c(c3)c(N3CCN5CCOC[C@@H]5C3)nn4C)sc2c(-c2ccc(Cl)cc2)c1[C@H](OC(C)(C)C)C(=O)O [Compound 4, (S)-2-(tert-butoxy)-2-(7-(4-chlorophenyl)-2-(3-((S)-hexahydropyrazino[2,1-c][1,4]oxazin-8(1H)-yl)-1-methyl-1H-indazol-5-yl)-5-methylbenzo[d]thiazol-6-yl)acetic Acid]",6.58

# Assay: not given
# Conditions: human, microsomes
row,Compound,Hum MS stability t½ [h]
1,(S)-2-(tert-butoxy)- 2-(7-(4-chloro- phenyl)-2-(3-(1-(2- (dimethylamino) ethyl)piperidin-4- yl)-1-methyl-1H- indazol-5-yl)-5- methylbenzo[d] thiazol-6-yl) acetic acid [Compound 130],6.58
2,"(S)-2-(2-(3-(1- ((R)-1-acetyl- pyrrolidin-3-yl) piperidin-4-yl)- 1-methyl-1H- pyrazolo[4,3-b] pyridin-5-yl)-7- (4-chlorophenyl)- 5-methylbenzo[d] thiazol-6-yl)-2- (tert-butoxy) acetic acid [Compound 169]",0.5
3,"(S)-2-(tert-butoxy)- 2-(7-(4-chloro- phenyl)-2-(3-((R)- hexahydropyrazino [2,1-c][1,4]oxazin- 8(1H)-yl)-1-methyl- 1H-indazol-5-yl)- 5-methylbenzo[d] thiazol-6-yl)acetic acid [Compound 135]",2.75
